Results: US20160235839A1, “CALCIUM FLUORIDE COMPOSITIONS” (priority 2013, published 2016)

Tested on: chicken red blood cells
Assay: Hemolytic test of QS21 adsorbed on composite

QS21
Delta DO (12.5 μg QS21/ml): 1.756 | Delta DO (25 μg QS21/ml): 1.811 | Delta DO (50 μg QS21/ml): 1.806 | Delta DO (100 μg QS21/ml): 1.811
